The results in this text go back to patent US10717799B2, “Copolymers as excipients for effective solubilization of poorly water-soluble substances from solid mixtures” (Dow Global Technologies LLC, priority 2015, dated 2020).

The conditions of data set [1]: pH 6.5.
The conditions of data set [2]: pH 6.5. This is another data set of the same source.

In the case of “hydroxypropyl methyl cellulose acetate succinate [HPMCAS]”, in data set [1], the “c(30 min) concentration of solubilized Phenytoin” value came to 352 mg/L, the “c(90 min) concentration of solubilized Phenytoin” value is reported as 295 mg/L and the “c(180 min) concentration of solubilized Phenytoin” value is recorded as 296 mg/L. For the same substance, in data set [2], the “solubilized drug concentration after 360 min” value is listed as “≈ 130 mg/L” and the “solubilized drug concentration within the first 4 min” value is “above 200 mg/L”.
